# Test: Minimum amount of water/ethanol (1.5/4 v/v) required to dissolve the crude salt at boil (recrystallization)
# Conditions: text summary of Table 3, hydroxylic media
# Excerpt: For comparative purposes, between and among organic salts prepared in this manner and for the purposes of subsequent Example 3, Table 3, crude reaction products were recrystalized from water/ethanol (1.5/4 v/v per gram of salt) using the minimum amount of solvent to effect dissolution at boil.
# In the case of succinic acid, the organic acid was dispensed as a half-equivalent in order to generate mitonafide hemisuccinate. […] Crude product that was isolated from the hydrogenation reaction mixture was analyzed for purity by high pressure liquid chromatography (HPLC) according to the conditions described in Table 1 above. […] The recrystallized product was then analyzed for purity by HPLC.
# The purities of the crude salts were assessed by HPLC according to the conditions described in Table 1 above. […] The resulting purified salts were again assessed for purity.
# The hydrochloride and methanesulfonic acid salts of amonafide were prepared according to U.S. Pat. No. 5,420,137. […] The purity was assessed by HPLC using the conditions described in Table 1. […] The resulting purified salts were again assessed for purity.
# The hydrochloride salt of amonafide was obtained by the method of Zee-Chang et al., U.S. Pat. No. 4,614,820. […] The purity was assessed by HPLC using the conditions described in Table 1. […] The resulting purified salts were again assessed for purity.
substance,measurement,value
amonafide hemisuccinate [Amonafide hemi-succinate],solubility compared with the HCl or methanesulfonic acid salt,significantly more soluble
